According to published antibiotic growth screens (doi:10.1038/s41589-023-01349-8):
This is one part of the list.

Each compound was assayed on A. baumannii ATCC 17978 (assay: relative growth (fraction of control); higher = less inhibition). Settings: 50 µM.

Row | Structure (SMILES) | relative growth
1 | COC(=O)c1nc[nH]c1C(=O)OC | 0.989
2 | CC(=O)N1CCN(c2ncnc3nc[nH]c23)CC1 | 1.04
3 | O=C(Nc1ccc(C(=O)O)c(O)c1)c1ccccc1 | 0.974
4 | CCCCOC(=O)c1ccc(N)cc1 | 1.01
5 | O=C(CCNc1n[nH]c(=O)[nH]c1=O)N1CCOCC1 | 1.07
6 | O=S1(=O)C[C@@H]2NC(=S)N[C@@H]2C1 | 1.17
7 | O=CN[C@H](Cc1ccccc1)C(=O)O | 1.06
8 | C[C@@H]1CN([C@H](C)CO)C(=O)c2cc(C#CCc3ccccc3)cnc2O[C@H]1CN(C)C(=O)Cc1cccnc1 | 1.03
9 | O=C(C[C@H]1CC[C@@H]2[C@H](COC[C@@H](O)CN2S(=O)(=O)c2ccccc2)O1)N1CCOCC1 | 0.937
10 | CN(C)CC(=O)N[C@H]1CC[C@@H](CCn2cc(CN(C)C)nn2)O[C@@H]1CO | 0.963
11 | CN(C)CCCCNC(=O)[C@H]1C[C@H]2C(=O)N[C@@H](CCCC[N+](C)(C)C)C(=O)N2[C@H]1c1cccc(OCCO)c1 | 1.19
12 | CO[C@@H]1CN(C)C(=O)c2ccc(NS(=O)(=O)c3cn(C)cn3)cc2OC[C@H](C)N(CC2CC2)C[C@H]1C | 0.957
13 | C=CCOC(=O)[C@H]1[C@@H]2C(=O)O[C@@H](c3ccccc3)[C@@H](c3ccccc3)N2[C@@H](c2ccc(OCCOC(=O)[C@@H]3C[C@@H]4C(=O)N[C@@H](CC(C)C)C(=O)N4[C@@H]3c3cccc(OCCO)c3)cc2)[C@]12C(=O)Nc1ccccc12 | 0.896
14 | C[C@@H]1CN([C@H](C)CO)S(=O)(=O)c2ccc(C#CC3(O)CCCC3)cc2O[C@H]1CN(C)C(=O)Nc1ccc(F)cc1 | 1.03
15 | CC[C@H]1OC(=O)[C@H](C)[C@@H](O[C@H]2C[C@@](C)(OC)[C@@H](O)[C@H](C)O2)[C@H](C)[C@@H](O[C@@H]2O[C@H](C)C[C@H](N(C)C)[C@H]2O)[C@](C)(OC)C[C@@H](C)C(=O)[C@H](C)[C@@H](O)[C@]1(C)O | 0.167
16 | CO[C@@H]1CN(C)C(=O)c2ccc(NC(=O)Nc3cccc(Cl)c3)cc2OC[C@H](C)N(C(=O)Nc2c(C)noc2C)C[C@@H]1C | 1.07
17 | CC(C)CNC(=O)C(=O)NCc1ccccn1 | 1.01
18 | CC(=O)N[C@@H](Cc1ccccc1)C(=O)NN | 1.08
19 | [N-]=[N+]=Nc1ccccc1[C@@H]1OC(c2ccc(OCCCO)cc2)=N[C@]1(CCS(=O)(=O)c1ccccc1)C(=O)NC[C@@H](O)CO | 0.931
20 | COC(=O)C[C@H]1CC[C@@H](N)[C@H](CO)O1 | 0.92
21 | O=C1c2ccccc2-c2c(-c3ccccc3)nc3ccccc3c21 | 1.01
22 | COC(=O)C(CCCN1C(=O)c2ccccc2C1=O)(NC(C)=O)c1nn[nH]n1 (stereo unspecified) | 1.01

Row | Structure (SMILES) | relative growth
23 | CCCCC1=NC2(CCCC2)C(=O)N1Cc1ccc(-c2ccccc2-c2nnn[nH]2)cc1 | 1.02
24 | CC(C)NCC(O)c1ccc(NS(C)(=O)=O)cc1.Cl (stereo unspecified) | 0.88
25 | CO/N=[N+](\[O-])N1CCC[C@H](C(N)=O)C1 | 0.954
26 | CO[C@H]1CN(C)C(=O)c2ccc(NC(=O)C3CC3)cc2OC[C@H](C)N(C(=O)C2CCOCC2)C[C@H]1C | 0.936
27 | O=C(C[C@H]1C[C@@H]2c3cc(NS(=O)(=O)c4ccc(F)cc4)ccc3O[C@@H]2[C@@H](CO)O1)N1CCOCC1 | 0.95
28 | C[C@H]1COC2=C1C(=O)C(=O)c1c2ccc2c1CCCC2(C)C | 1.07
29 | NC(=O)Cc1cccc(C(=O)c2ccccc2)c1N | 0.912
30 | COc1ccccc1CNC(=O)C[C@@H]1C[C@H]2c3cc(NC(=O)c4cccnc4)ccc3O[C@H]2[C@H](CO)O1 | 0.983
31 | COc1cccc(S(=O)(=O)Nc2ccc3c(c2)[C@H]2C[C@H](CC(=O)NCCc4ccccc4)O[C@H](CO)[C@H]2O3)c1 | 0.945
32 | NNC(=O)c1cc2ccccc2[nH]1 | 1.15
33 | COc1ccc(-c2nc3cc(C4=NNC(=O)CC4C)ccc3[nH]2)cc1 (stereo unspecified) | 1.05
34 | CC(=O)N(C)C[C@H]1Oc2ncc(C#C[C@@H](C)O)cc2C(=O)N([C@@H](C)CO)C[C@@H]1C | 1.03
35 | O=C(CCCl)NCc1ccccc1 | 1.04
36 | COCC#Cc1ccc2c(c1)O[C@H](CN(C)S(=O)(=O)c1ccc(F)cc1)[C@@H](C)CN([C@H](C)CO)S2(=O)=O | 0.86
37 | CNS(=O)(=O)Cc1ccc2[nH]cc(CCN(C)C)c2c1 | 1.22
38 | CCn1nnc2c(=S)nc[nH]c21 | 0.837
39 | O=c1c(O)c(-c2ccc(O)c(O)c2)oc2cc(O)ccc12 | 0.935
40 | NS(=O)(=O)c1cc2c(cc1Cl)N=CNS2(=O)=O | 0.99
41 | O=C1O[C@@H](c2ccccc2)[C@@H](c2ccccc2)N2[C@@H](c3ccc(O)cc3)[C@]3(C(=O)Nc4ccccc43)[C@@H](C(=O)NC[C@H](O)c3ccccc3)[C@H]12 | 0.963
42 | O=c1cn[nH]c(NC2CCCC2)n1 | 1.01
43 | C=C(C)[C@]1(O)OC(=O)C=C1OC | 0.951
44 | C/C=C/c1ccc2c(c1)O[C@@H](CN(C)S(=O)(=O)c1ccc(C)cc1)[C@@H](C)CN([C@@H](C)CO)S2(=O)=O | 1.03

Row | Structure (SMILES) | relative growth
45 | CCOC(=O)[C@H](CCc1ccccc1)N[C@@H](C)C(=O)N1[C@H](C(=O)O)C[C@@H]2CCC[C@@H]21 | 0.865
46 | O=C(N[C@H]1CC=CC[C@H](CC(=O)N(CCO)Cc2ccccc2)C(=O)N[C@@H](Cc2c[nH]c3ccccc23)COC1=O)OCC1c2ccccc2-c2ccccc21 | 1.02
47 | C#CCCCCCCCCCCCC(O)CC(O)CO.C=CCCCCCCCCCCCC(O)CC(O)CO (stereo unspecified) | 1.11
48 | Cn1cnc(S(=O)(=O)N[C@H]2CC[C@H](CC(=O)Nc3ccccc3)O[C@H]2CO)c1 | 1.06
49 | NC(=O)c1ncn([C@@H]2O[C@H](CO)[C@@H](O)[C@H]2O)n1 | 0.914
50 | Cc1ccccc1S(=O)(=O)N1C[C@@H](O)COC[C@H]2O[C@@H](CC(=O)N3CCC(Cc4ccccc4)CC3)CC[C@@H]21 | 0.781
51 | O=C(CN1CCOCC1)N[C@H]1CC[C@@H](CCNC(=O)C2CCC2)O[C@H]1CO | 0.946
52 | CC(C)(C)NC[C@@H](O)COc1nsnc1N1CCOCC1.O=C(O)/C=C\C(=O)O | 1.13
53 | COCCOC(=O)N1C(=O)[C@@]2(c3cc(C#Cc4ccc(OC)cc4)ccc31)[C@H](C(=O)N1CCc3cc(OC)c(OC)cc3C1)[C@H]1C(=O)O[C@H](c3ccccc3)[C@H](c3ccccc3)N1[C@@H]2c1ccc(OCCO)cc1 | 1.04
54 | Cc1ccc(-c2cnc3c(c2)C(=O)N([C@H](C)CO)C[C@H](C)[C@H](CN(C)C(=O)Cc2ccncc2)O3)cc1 | 0.943
55 | COc1cccc(S(=O)(=O)N(C)C[C@H]2Oc3cc(C4=CCCC4)ccc3S(=O)(=O)N([C@@H](C)CO)C[C@@H]2C)c1 | 1.03
56 | C(=C\[C@@H]1Nc2ccccc2-c2nc3ccccc3n21)/c1ccccc1 | 1.01
57 | Br.Cc1ccc(Sc2ccccc2N2CCNCC2)c(C)c1 | 1.12
58 | C=CCON1C(=O)[C@@H]2[C@@H](C1=O)[C@@H]1C=C[C@@H]2O1 | 0.967
59 | C[C@H](CO)N1C[C@H](C)[C@H](CN(C)C)Oc2cc(C#CCN(C)C)ccc2S1(=O)=O | 1.1
60 | CC1=CC2C(C(C)C)CCC(C)(O)C2CC1 (stereo unspecified) | 1.06
61 | C[C@H]1CN([C@@H](C)CO)C(=O)Cc2cc(NC(=O)Nc3ccc(Cl)c(Cl)c3)ccc2O[C@H]1CN(C)S(=O)(=O)c1ccc(Cl)cc1 | 1.08
62 | O=C(C[C@H]1CC[C@@H]2[C@H](COC[C@@H](O)CN2C(=O)c2ccccc2)O1)N1CCOCC1 | 1.01
63 | NS(=O)(=O)c1cc(C(=O)O)c(NCc2ccco2)cc1Cl | 1.02
64 | CC(C)n1c(-c2ccccc2)cs/c1=N\c1ccccc1 | 0.957
65 | CN(c1c[nH]c(=O)[nH]c1=O)C1CCCCC1 | 0.982
66 | C=CCSc1n[nH]c2nc(=O)cc(N)n12 | 1.02

Row | Structure (SMILES) | relative growth
67 | C=CCn1cnc2c1c(=O)[nH]c(=O)n2C | 1.12
68 | NCC[C@@H]1CC[C@@H](NC(=O)C2CC2)[C@H](CO)O1 | 1.05
69 | CCO[C@H]1CC(C)(C)NC(=S)N1 | 1.03
70 | COc1ccc(CN(CCN(C)C)c2ccccn2)cc1.O=C(O)/C=C\C(=O)O | 0.927
71 | CC(C)(C)c1ccc(NC(=O)c2ccc(C(C)(C)C)s2)cc1 | 1.08
72 | O=C(CN1CCOCC1)N[C@H]1CC[C@@H](CCNC(=O)C2CCCCC2)O[C@H]1CO | 1.1
73 | COc1cc2nc(N3CCCN(Cc4ccccc4)CC3)nc(Nc3ccc(F)c(Cl)c3)c2cc1OC | 0.978
74 | Cc1cccc(S(=O)(=O)N2C[C@H](O)COC[C@H]3O[C@@H](CC(=O)NCCCN4CCOCC4)CC[C@@H]32)c1 | 0.994
75 | O=C(C[C@@H]1C[C@@H]2c3cc(NC(=O)Nc4ccc(C(F)(F)F)cc4)ccc3O[C@@H]2[C@@H](CO)O1)NCc1ccc(Cl)cc1 | 0.941
76 | CN(C)C(=O)C[C@H]1CC[C@H](NC(=O)C2CC2)[C@@H](CO)O1 | 1.03
77 | O=C(O)c1cc(=O)c2ccccc2o1 | 1.23
78 | CCCC(=O)Nc1ncnc2c1ncn2C1O[C@@H]2COP(=O)([O-])O[C@H]2[C@H]1OC(=O)CCC.[Na+] (stereo partly specified) | 1.21
79 | C[C@H](CO)N1C[C@H](C)[C@H](CN(C)C(=O)c2ccccc2)Oc2cc(C#CC3(O)CCCC3)ccc2S1(=O)=O | 1.05
80 | CC(=O)[C@@H](OC(=O)CS(C)(=O)=O)C(=O)NCc1ccccc1 | 1.01
81 | CCOC(=O)[C@@H](N)[C@@H](O)c1ccccc1 | 1.04
82 | NNC(=O)CNC(=O)c1ccccc1 | 1.07
83 | CCCCCNC(=N)N/N=C/c1c[nH]c2ccc(OC)cc12.O=C(O)/C=C\C(=O)O | 0.772
84 | NC(=CS(=O)(=O)Cc1ccc(F)cc1)NO | 1.04
85 | C[C@H]1CN([C@@H](C)CO)C(=O)CCCn2cc(nn2)CO[C@@H]1CN(C)C(=O)Nc1ccc(N2CCCCC2)cc1 | 1.12
86 | COc1ccc([Si](C)(C)[C@@H]2[C@@H](CC(=O)N(CCO)Cc3ccccc3)O[C@]3(C(=O)N(Cc4ccc(N5CCC5=O)cc4)c4ccccc43)[C@H]2C)cc1 | 1.13
